In ChEMBL document CHEMBL2150859, “Design, synthesis, and evaluation of 3,5-disubstituted 7-azaindoles as Trk inhibitors with anticancer and antiangiogenic activities” (J Med Chem, 2012):

Test: Selectivity ratio of Kd for PI3Kalpha to Kd for TRKA

Selectivity ratio: 181
Structure (SMILES): Nc1cccc(-c2cnc3[nH]cc(-c4ccncc4)c3c2)c1
